Our source for the activation values is PubChem BioAssay AID463112 (Sanford-Burnham Center for Chemical Genomics, 2010).

This is a selection; strong and weak results do not stand in their true shares. Calls of active or inactive are those of the source. Rule as the data show it: active = activation above about 33%; inactive = the rest.

The nature of this experiment: activators of apoptotic CHOP UPR arm, confirmation, cell-based, CHO-CHOP luciferase reporter, single concentration (AID 463112).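 Also: 0% = DMSO wells and 100% = tunicamycin 10 µg/mL wells.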 As to conditions: CHO-CHOP cells, CHOP-luciferase reporter luminescence; at 10 µM; hits give high values; percent of tunicamycin response, DMSO as zero. The essentials:
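assay system = CHO-CHOP luciferase reporter cell line | compound dosing = 10 µM single point, 0.5% DMSO | times = overnight cell seeding before dosing, 6 h compound exposure at 37 °C | signal = luciferase luminescence measured with Steady-Glo reagent | controls = tunicamycin 10 µg/mL as high control, DMSO alone as low control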
For orientation: A reporter such as luciferase makes a cellular process visible.
On to `C[N+]1=C2C=CC=CC=C2SC12C([N+](=O)[O-])=CC([N+](=O)[O-])=C[C-]2[N+](=O)[O-]` (configuration not stated), for which the activation is inactive: -3.25%.
In the case of `CCN(CC)C(=S)SC(NC=O)C(Cl)(Cl)Cl` (configuration not stated) it was active: 107%.
